{"sequences": {"note": "Chains of the proteins cited; added tags and fusions are not shown.", "UniProt Q16665, whole entry, looked up": "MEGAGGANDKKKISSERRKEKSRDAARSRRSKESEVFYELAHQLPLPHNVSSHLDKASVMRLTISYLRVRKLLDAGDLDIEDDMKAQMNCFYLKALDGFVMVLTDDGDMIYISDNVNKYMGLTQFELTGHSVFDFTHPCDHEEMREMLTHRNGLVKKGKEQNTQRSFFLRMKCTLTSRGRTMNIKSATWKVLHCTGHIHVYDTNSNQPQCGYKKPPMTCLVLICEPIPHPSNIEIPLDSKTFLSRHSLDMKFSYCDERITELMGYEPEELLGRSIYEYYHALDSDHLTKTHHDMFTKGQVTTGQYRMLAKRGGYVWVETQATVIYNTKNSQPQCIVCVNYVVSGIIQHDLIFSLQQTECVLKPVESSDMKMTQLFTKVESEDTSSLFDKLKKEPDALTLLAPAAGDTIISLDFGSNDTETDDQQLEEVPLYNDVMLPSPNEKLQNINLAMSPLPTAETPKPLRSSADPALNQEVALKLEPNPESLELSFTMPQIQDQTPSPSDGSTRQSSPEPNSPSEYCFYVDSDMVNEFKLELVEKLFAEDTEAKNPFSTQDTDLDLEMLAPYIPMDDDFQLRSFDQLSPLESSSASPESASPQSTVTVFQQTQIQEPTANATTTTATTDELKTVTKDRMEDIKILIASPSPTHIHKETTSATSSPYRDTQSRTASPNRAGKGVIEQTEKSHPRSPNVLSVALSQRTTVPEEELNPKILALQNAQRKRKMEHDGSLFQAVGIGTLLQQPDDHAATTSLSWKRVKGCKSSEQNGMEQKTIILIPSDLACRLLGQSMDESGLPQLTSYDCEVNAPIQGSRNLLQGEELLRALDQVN"}, "source": "ChEMBL document CHEMBL3992551", "about": "“Synthesis and evaluation of N-(benzofuran-5-yl)aromaticsulfonamide derivatives as novel HIF-1 inhibitors that possess anti-angiogenic potential” (Bioorg Med Chem, 2017)", "key": {"[1]": {"tested_on": "MCF7", "assay": "Antiproliferative activity against human MCF7 cells after 72 hrs under hypoxic condition by MTT assay"}, "[2]": {"tested_on": "MDA-MB-231", "assay": "Antiproliferative activity against human MDA-MB-231 cells after 72 hrs under hypoxic condition by MTT assay"}, "[3]": {"biological_target": "Hypoxia-inducible factor 1-alpha (Homo sapiens, UniProt Q16665)", "assay": "Inhibition of HIF-1alpha (unknown origin) transcriptional activity expressed in human MCF7 cells after 24 hrs under hypoxic condition by HRE luciferase reporter gene assay"}, "[4]": {"tested_on": "MDA-MB-468", "assay": "Antiproliferative activity against human MDA-MB-468 cells after 72 hrs under hypoxic condition by MTT assay"}}}
{"molecule": "N[C@@H](Cc1ccc([N+]([O-])(CCCl)CCCl)cc1)C(=O)O", "values": [{"measurement": "IC50", "setting": "[1]", "value": 19.7, "unit": "µM"}, {"measurement": "IC50", "setting": "[2]", "value": 62.8, "unit": "µM"}, {"measurement": "IC50", "setting": "[3]", "value": 20.2, "unit": "µM"}, {"measurement": "IC50", "setting": "[4]", "value": 45.1, "unit": "µM"}]}
